Source: article PMC10931632, “Inhibition of Insulin-Regulated Aminopeptidase by Imidazo [1,5-α]pyridines—Synthesis and Evaluation” (International Journal of Molecular Sciences, 2024)

Protein sequences, listed by entry. Tags and fused reporters are not part of them. Residues count along the entry.
UniProt A0A8C2M8D5, 1-1025: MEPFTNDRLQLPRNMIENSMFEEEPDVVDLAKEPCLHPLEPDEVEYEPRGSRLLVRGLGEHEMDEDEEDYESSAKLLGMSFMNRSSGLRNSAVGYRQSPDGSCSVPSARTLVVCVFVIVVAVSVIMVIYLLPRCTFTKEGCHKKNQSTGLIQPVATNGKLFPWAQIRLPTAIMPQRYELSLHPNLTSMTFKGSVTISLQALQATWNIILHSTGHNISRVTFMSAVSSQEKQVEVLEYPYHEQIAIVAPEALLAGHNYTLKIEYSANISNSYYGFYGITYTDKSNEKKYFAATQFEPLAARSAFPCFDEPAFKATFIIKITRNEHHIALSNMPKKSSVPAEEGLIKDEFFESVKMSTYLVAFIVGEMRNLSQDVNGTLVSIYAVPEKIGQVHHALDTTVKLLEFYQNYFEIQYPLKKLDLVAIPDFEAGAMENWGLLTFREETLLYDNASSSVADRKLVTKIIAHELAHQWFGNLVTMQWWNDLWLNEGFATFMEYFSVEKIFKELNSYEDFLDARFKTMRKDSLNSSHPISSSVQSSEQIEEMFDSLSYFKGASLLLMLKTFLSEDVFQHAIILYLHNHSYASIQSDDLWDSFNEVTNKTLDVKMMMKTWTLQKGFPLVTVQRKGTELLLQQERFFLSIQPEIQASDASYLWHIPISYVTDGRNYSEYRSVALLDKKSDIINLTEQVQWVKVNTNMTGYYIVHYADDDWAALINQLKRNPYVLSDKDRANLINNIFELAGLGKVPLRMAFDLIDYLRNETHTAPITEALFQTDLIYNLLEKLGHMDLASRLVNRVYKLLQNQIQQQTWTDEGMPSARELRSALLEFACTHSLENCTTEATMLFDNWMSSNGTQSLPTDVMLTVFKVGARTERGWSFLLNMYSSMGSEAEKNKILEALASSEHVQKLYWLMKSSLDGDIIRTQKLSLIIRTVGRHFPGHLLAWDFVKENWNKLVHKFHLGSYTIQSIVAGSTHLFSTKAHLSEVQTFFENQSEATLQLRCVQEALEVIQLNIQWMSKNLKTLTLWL
UniProt Q9UIQ6, whole entry: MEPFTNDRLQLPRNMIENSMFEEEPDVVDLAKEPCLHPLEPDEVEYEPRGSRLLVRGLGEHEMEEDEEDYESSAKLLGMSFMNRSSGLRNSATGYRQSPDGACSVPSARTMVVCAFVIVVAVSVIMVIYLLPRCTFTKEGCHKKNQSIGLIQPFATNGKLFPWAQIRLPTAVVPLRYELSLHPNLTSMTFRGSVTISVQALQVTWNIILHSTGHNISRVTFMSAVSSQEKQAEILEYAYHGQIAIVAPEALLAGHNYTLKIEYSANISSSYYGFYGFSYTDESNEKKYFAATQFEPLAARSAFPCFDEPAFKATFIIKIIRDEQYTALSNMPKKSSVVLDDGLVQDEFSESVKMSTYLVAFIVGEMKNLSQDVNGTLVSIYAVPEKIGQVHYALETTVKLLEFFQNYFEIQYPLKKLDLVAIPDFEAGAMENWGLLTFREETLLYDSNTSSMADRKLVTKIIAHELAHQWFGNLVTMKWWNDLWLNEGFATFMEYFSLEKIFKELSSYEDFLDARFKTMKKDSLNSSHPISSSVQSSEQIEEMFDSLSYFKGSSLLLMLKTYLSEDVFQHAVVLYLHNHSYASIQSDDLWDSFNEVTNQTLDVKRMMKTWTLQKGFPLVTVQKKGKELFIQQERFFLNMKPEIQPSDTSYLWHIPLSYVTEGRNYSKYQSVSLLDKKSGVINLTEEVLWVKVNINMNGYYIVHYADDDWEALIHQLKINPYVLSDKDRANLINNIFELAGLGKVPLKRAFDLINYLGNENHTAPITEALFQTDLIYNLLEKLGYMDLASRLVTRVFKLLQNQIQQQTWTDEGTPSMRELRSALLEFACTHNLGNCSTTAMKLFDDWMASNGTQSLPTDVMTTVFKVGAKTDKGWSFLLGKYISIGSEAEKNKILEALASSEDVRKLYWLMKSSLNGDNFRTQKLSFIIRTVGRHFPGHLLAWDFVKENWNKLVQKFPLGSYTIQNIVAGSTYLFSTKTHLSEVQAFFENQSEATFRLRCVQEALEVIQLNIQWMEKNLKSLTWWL
UniProt P15144, whole entry: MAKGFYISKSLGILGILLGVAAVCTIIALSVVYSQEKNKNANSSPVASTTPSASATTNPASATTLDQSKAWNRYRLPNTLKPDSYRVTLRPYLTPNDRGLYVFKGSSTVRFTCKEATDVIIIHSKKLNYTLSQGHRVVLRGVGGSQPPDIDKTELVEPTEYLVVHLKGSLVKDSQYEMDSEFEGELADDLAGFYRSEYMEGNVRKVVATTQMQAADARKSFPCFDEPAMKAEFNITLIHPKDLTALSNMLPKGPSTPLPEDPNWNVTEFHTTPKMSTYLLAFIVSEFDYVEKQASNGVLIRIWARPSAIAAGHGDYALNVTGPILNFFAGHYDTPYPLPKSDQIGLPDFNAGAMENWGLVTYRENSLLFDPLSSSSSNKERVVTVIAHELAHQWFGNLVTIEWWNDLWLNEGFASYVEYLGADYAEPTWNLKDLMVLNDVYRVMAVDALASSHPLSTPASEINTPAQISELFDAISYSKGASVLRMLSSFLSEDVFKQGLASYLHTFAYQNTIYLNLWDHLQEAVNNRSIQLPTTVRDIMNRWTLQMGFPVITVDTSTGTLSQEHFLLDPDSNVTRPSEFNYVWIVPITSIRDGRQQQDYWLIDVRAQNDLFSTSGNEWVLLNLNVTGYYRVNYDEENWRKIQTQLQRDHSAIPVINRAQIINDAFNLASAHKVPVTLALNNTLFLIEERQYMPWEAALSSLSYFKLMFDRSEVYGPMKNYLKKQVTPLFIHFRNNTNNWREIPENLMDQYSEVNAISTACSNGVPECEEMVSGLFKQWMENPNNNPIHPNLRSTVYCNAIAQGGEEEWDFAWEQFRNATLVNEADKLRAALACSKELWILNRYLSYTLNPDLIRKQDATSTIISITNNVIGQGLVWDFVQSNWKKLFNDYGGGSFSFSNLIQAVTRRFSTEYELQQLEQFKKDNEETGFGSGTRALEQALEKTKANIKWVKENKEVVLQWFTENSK

What was measured:
[1] = Human liver microsome intrinsic clearance; conditions: human liver microsomes
Protocol: (§1) Pre-clinical profiling of the compounds was performed at AstraZeneca R&D in Gothenburg, Sweden, applying an integrated panel of assays referred to as the DMPK Wave 1 panel.

[2] = target: CHO cells' IRAP (Cricetulus griseus, UniProt A0A8C2M8D5); assay: IRAP inhibition, concentration-response on membrane preparations from CHO cells; type: biochemical, Chinese hamster; conditions: for pIC50: mean ± SD (n test occasions)
Protocol: Membrane preparations from frozen CHO cells and HEK293T cells with overexpressed IRAP and APN were prepared and handled as previously described. Details for the assay used to evaluate the inhibitory activity of the compounds have already been published.

[3] = target: human IRAP (Homo sapiens, UniProt Q9UIQ6); assay: Inhibition of human membrane-bound IRAP overexpressed in HEK293 cells (hIRAP); conditions: for IC50: read-out: hIRAP IC50
Protocol: (§2) Human IRAP and APN were overexpressed, as previously described.
(§3) Membrane preparations from frozen CHO cells and HEK293T cells with overexpressed IRAP and APN were prepared and handled as previously described.
(§4) Details for the assay used to evaluate the inhibitory activity of the compounds have already been published.

[4] = Dried DMSO solubility in aqueous phosphate buffer pH 7.4; conditions: aqueous phosphate buffer (PBS) at pH 7.4
Protocol: as §1

[5] = LogD7.4 (DMPK Wave 1 panel); conditions: pH 7.4; average ± SD of three test occasions
Protocol: as §1

[6] = Human plasma stability; conditions: after 18 h incubation
Protocol: as §1

[7] = Rat hepatocytes intrinsic clearance
Protocol: as §1

[8] = target: human aminopeptidase N (APN) (Homo sapiens, UniProt P15144); assay: Inhibition of human aminopeptidase N overexpressed in HEK293 cells
Protocol: as §2, §3, §4

[9] = Table 2, synthesized and resynthesized analogs, CHO cells' IRAP, highest concentration tested 125 µM
[10] = Table 2, synthesized and resynthesized analogs, CHO cells' IRAP
[11] = Table 4, IRAP from Chinese Hamster Ovary Cells
[12] = read-out: CHO IRAP IC50, Table 4, IRAP from Chinese Hamster Ovary Cells

COc1ccccc1-c1nc(C2CCCN2C(=O)N[C@@H](C)c2ccccc2)n2ccccc12 (single isomer, unassigned) [6a_dia1]
HLM Clint [1]: >300 ^[h] µL/min/mg | HLM t ½ [1]: < 2.3 min | IC50 [2, 9]: 16 µM | pIC50 [2, 10]: 4.8 ) | CHO IRAP pIC50 [2, 11]: 4.8 ± 0.2 | IC50 [2, 12]: 16 µM | hIRAP pIC50 [3]: 5.2 | IC50 [3]: 6.3 µM | Sol. (dried DMSO solubility) [4]: 40–124 ^[f] µM | LogD7.4 [5]: 2.8 | Plasma Stab [6]: 102 ± 5 % compound remaining | Rat hep. Clint [7]: >300 ^[h] µL/min/10^6 cells | Rat hep. t ½ [7]: < 2.3 min

COc1ccccc1-c1nc(C2CCCN2C(=O)N[C@@H](C)c2ccccc2)n2ccccc12 (single isomer, unassigned) [6a_dia2]
HLM Clint [1]: >300 ^[h] µL/min/mg | HLM t ½ [1]: < 2.3 min | fold more potent than the less active diastereomer 6a_dia1 ([2]; CHO cells' IRAP): 15 fold | IC50 [2, 9]: 1 µM | pIC50 [2, 10]: 6 ) | CHO IRAP pIC50 [2, 11]: 6.0 ± 0.1 | IC50 [2, 12]: 1 µM | hIRAP pIC50 [3]: 6.0 | IC50 [3]: 1 µM | Sol. (dried DMSO solubility) [4]: 76 ± 14 ^[g] µM | LogD7.4 [5]: 2.6 | Plasma Stab [6]: 104 ± 3 % compound remaining | APN IC50 (µM)/pIC50 [8]: inactive (1) | Rat hep. Clint [7]: >300 ^[h] µL/min/10^6 cells | Rat hep. t ½ [7]: < 2.3 min

Read-outs that look alike come from different tables or passages of the source. Marks after values point to notes of the source that are not given here.
